# Binding of CDR-mutated scFvs to a peptide of the spike HR2 region

Source: Engelhart et al. 2022 (doi:10.1038/s41597-022-01779-4), MIT Lincoln Laboratory and A-Alpha Bio; data file from the FLAb repository.

The target is the same throughout: PDVDLGDISGINAS, from the HR2 region of SARS-CoV-2 spike.

The variants keep the heavy chain, the linker and the frameworks of Ab-14 (scFv order VH, the linker GGGGSGGGGSGGGGS, VL).
VH: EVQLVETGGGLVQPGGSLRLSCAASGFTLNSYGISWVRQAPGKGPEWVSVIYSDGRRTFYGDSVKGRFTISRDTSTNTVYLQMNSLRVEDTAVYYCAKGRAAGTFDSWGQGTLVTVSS
VL: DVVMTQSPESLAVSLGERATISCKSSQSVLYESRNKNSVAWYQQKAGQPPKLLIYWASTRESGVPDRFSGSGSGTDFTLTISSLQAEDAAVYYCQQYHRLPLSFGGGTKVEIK

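The starting antibody came from a phage panning campaign against this peptide. AAYL50 was designed without a model: most single CDR substitutions and a random sample of double and triple ones. The assay is AlphaSeq: two haploid yeast populations carry antibody and antigen on their surface. Mating (16 h, 30 °C) was followed by selection of diploids and sequencing of their barcodes. Scores were corrected for input abundance and mapped to Kd with protein pairs of known affinity run in the same pool. Each pool was mated in three replicate cultures.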

Substitutions are numbered in sequence along the VL above, starting at 1 (not Kabat).
Values are log10 of the apparent Kd in nM; lower means stronger binding.
"nd" marks a missing value. The strain was present, yet no cells mated with the target were sequenced in that replicate, which points to weak or no binding.

log10 Kd (nM) by replicate | changes
5.29 nd 4.07 | R34K W56P Y97G
nd nd nd | R60N S103E
0.84 1.20 1.06 | Q27N T59M E61N
1.38 1.50 1.53 | Q27L N37E Q96H
1.47 1.61 1.62 | S62V L102A S103F
4.47 nd 6.34 | S28N V39A S62P
1.48 1.85 2.08 | K24I Y97P P101C
0.58 0.73 0.64 | E61W S62E
nd nd nd | L30V W56I T59Q
3.83 nd nd | E32F R60F L100K
nd nd nd | V39Y Q95A H98Y
3.36 2.20 nd | S25Y E32N K36C
0.52 0.67 0.64 | K24H Q27E R99H
4.07 nd nd | K36H Q95S S103R
1.94 nd nd | W56P H98A R99Q
1.23 1.22 1.52 | V29W S58G R99L
1.97 2.28 1.85 | L100A L102I
5.06 3.04 2.64 | Q27K S62G R99L
nd nd nd | Q96S L100K P101E
nd nd nd | K24L L30S R99P
2.46 2.23 2.58 | V29N Y31H Q96Y
1.00 1.23 1.38 | L30V E61N H98E
1.11 1.02 0.58 | E32A H98K L102D
nd nd nd | S26W W56R P101C
nd nd nd | K24G N35H R60M
1.47 1.65 1.67 | R34A S58F
nd 3.81 nd | S33Y R34P Y97A
nd nd nd | S58G Q96N L102A
nd nd nd | V39H R99A L102M
nd nd nd | S38R A57C S58C
6.56 nd nd | R60A Q95H
nd nd nd | K24V Y97Q S103R
nd 3.56 5.09 | L30M S38T S103N
nd nd nd | N37F Q96V
nd nd nd | L30P K36Y L100C
3.73 nd 5.38 | S28Y R60W R99H
1.80 1.30 1.78 | Y31K E61A S103P
4.81 4.08 nd | S26I N35E A40Q

For reference, 2 entries of the list once more:

changes,log10 Kd (nM) by replicate
R34K W56P Y97G,5.29 nd 4.07
V29N Y31H Q96Y,2.46 2.23 2.58

As a blank, each scFv also met three strains without target: over library AAYL50, 18% of these pairings were detected, typically at 4.19 and seldom below 2.99.
In this assay the parent's reference entry averaged 0.65; its copy inside this library read 1.68.